Data as given in patent US8080632B2, “Peptide mimics of melanocyte stimulating hormone” (The Feinstein Institute for Medical Research, priority 2005, dated 2011).

What was measured:
[1] = system: Human peripheral blood mononuclear cells; test: HMGB1-induced TNF release by human macrophages in culture; assay type: cell-based; conditions: 6 hours
[2] = system: RAW 264.7 cells; test: LPS-induced HMGB1 release by macrophages; assay type: cell-based, murine; conditions: peptide at 100 pM, LPS 100 ng/ml, overnight incubation
[3] = system: RAW 264.7 cells; test: HMGB1-induced TNF release by RAW cells (also with anti-MC1R Ab or H89)
[4] = system: RAW 264.7 cells; test: Endotoxin-stimulated TNF release with agouti (Table 1); assay type: cell-based, murine

adrenocorticotropic hormone (SYSMEHFRWGKPVGKKRRPVKVYPNGAEDESAEAFPLEF; mammalian melanocortin ACTH (1-39))
attenuation of HMGB1-induced TNF release [1]: very similar results | LPS-induced release of HMGB1 [2]: indistinguishable from α-MSH | LPS-induced release of HMGB1 ([2]; listed as ACTH): markedly blunted | suppression of HMGB1-induced TNF release, dose dependence ([3]; data not shown): highly significant suppression in the subpicomolar range

Mouse agouti (93-132)-NH2
TNF levels with agouti plus LPS versus LPS alone [4]: significantly above those observed with LPS alone | effect of agouti on attenuation of LPS-induced TNF release by α-MSH and MECO-1 [4]: reversed the attenuation

O=S(=O)(NCCNC/C=C/c1ccc(Br)cc1)c1cccc2cnccc12 [H89]
effect of H89 on peptide attenuation of HMGB1-induced TNF ([3]; H89 1 μM, peptides 10^−10 M, 6 h): abrogated the effects of the three peptides
